Experimental data: patent US7056935B2, “Rotamase enzyme activity inhibitors” (GPI NIL Holdings, Inc., priority 1995, dated 2006)

The chains behind the UniProt entries cited, without tags or fusion partners.
UniProt P62942, whole entry: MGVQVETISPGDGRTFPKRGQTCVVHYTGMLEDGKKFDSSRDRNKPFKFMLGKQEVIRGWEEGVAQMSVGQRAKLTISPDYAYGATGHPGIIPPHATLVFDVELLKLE

Experiments:
[1] = test system: chick dorsal root ganglia (DRG) explants; assay: Chick dorsal root ganglion cultures and neurite outgrowth; format: cell-based; settings: drug alone; chick embryo DRG explants, 48 hours after drug treatment
FKBP = FKBP (Homo sapiens, UniProt P62942); assay: Ki test procedure: inhibition of peptidyl-prolyl isomerase (rotamase) activity, chymotrypsin-coupled assay; format: biochemical; settings: apparent Ki, substrate N-succinyl-Ala-Phe-Pro-Phe-p-nitroanilide, Table I

Compound	ED50, nM Neurite Outgrowth in DRG Cultures [1]	Ki (FKBP) [nM]
COC(=O)C(=O)N1CCCC[C@H]1C(=O)OCCCC1CCCC1	>10,000 nM	–
O=C(C(=O)N1CCCC[C@H]1C(=O)OC(CCCc1ccccc1)CCCc1cccnc1)c1ccccc1 (some centres unmarked)	1 to 5 nM	–
COc1cc(C(=O)C(=O)N2CCCC[C@H]2C(=O)OCCCc2c[nH]c3ccccc23)cc(OC)c1OC	0.055 nM	–
COC(=O)C(=O)N1CCCC[C@H]1C(=O)OCCCCC1CCCCC1	>10,000 nM	–
COc1cc(C(=O)C(=O)N2CCCC[C@H]2C(=O)OCCCCC2CCCCC2)cc(OC)c1OC	0.031 nM	–
O=C(C(=O)N1CCCC[C@H]1C(=O)OCc1ccccc1)c1ccco1	1000 nM	3000
COC(=O)C(=O)N1CCCC[C@H]1C(=O)OCCCC1CCCCC1	>10,000 nM	20000
CC(C)Oc1cccc(C(=O)C(=O)N2CCCC[C@H]2C(=O)OC(CCCc2ccccc2)CCCc2cccnc2)c1 (some centres unmarked)	0.30 nM	–
COc1ccc(CCC(CCCc2ccccc2)OC(=O)[C@@H]2CCCCN2C(=O)C(=O)c2ccccc2)cc1 (some centres unmarked)	10 to 20 nM	–
O=C(C(=O)N1CCCC[C@H]1C(=O)OC(CCCc1ccccc1)CCCc1ccccn1)c1ccccc1 (some centres unmarked)	0.063 nM	–
O=C(C(=O)N1CCCC[C@H]1C(=O)OCCCCC1CCCCC1)c1ccccc1	10 to 20 nM	400
